Measured values as given in publication PMC7684313, “In vitro and in vivo pharmacological activity of minor cannabinoids isolated from Cannabis sativa” (Scientific Reports, 2020).

Chains of the proteins cited; added tags and fusions are not shown.
UniProt P34972, whole entry: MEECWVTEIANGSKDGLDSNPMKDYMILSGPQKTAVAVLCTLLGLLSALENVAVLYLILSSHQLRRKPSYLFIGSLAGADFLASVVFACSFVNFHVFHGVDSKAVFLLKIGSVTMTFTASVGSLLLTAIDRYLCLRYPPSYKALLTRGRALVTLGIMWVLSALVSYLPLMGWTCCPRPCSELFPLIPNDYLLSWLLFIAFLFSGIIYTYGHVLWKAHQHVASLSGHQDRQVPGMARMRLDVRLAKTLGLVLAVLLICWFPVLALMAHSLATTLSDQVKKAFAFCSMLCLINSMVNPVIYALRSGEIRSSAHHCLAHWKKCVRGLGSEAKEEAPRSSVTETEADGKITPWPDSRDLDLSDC

Tests used:
hCB2R [1] = target: T1, hCB2R (Homo sapiens, UniProt P34972); assay: hCB2R-dependent recruitment of βarrestin2 (PathHunter CHO cells); assay type: cell-based; parameters: expressed in transfected cells; membranes; details: 90 min, 95% CI in brackets
hCB2R [2] = target: T1, hCB2R; assay: hCB2R-dependent inhibition of FSK-stimulated cAMP accumulation (HitHunter CHO cells); assay type: cell-based; parameters: expressed in transfected cells; membranes; details: 90 min, 95% CI in brackets

C=C(C)[C@@H]1CCC(C)=C[C@H]1c1c(O)cc(CCCCC)cc1O [CBD, cannabidiol, reference compound] showed an EC50 (hCB2R [1]) of 0.058 µM and an EC50 (hCB2R [2]) greater than 10 µM.
